Laboratory results as given in publication PMC10219297.

Protein sequences, listed by entry. Tags and fused reporters are not part of them. Residues count along the entry.
UniProt P40763, 2-770 limits assumed: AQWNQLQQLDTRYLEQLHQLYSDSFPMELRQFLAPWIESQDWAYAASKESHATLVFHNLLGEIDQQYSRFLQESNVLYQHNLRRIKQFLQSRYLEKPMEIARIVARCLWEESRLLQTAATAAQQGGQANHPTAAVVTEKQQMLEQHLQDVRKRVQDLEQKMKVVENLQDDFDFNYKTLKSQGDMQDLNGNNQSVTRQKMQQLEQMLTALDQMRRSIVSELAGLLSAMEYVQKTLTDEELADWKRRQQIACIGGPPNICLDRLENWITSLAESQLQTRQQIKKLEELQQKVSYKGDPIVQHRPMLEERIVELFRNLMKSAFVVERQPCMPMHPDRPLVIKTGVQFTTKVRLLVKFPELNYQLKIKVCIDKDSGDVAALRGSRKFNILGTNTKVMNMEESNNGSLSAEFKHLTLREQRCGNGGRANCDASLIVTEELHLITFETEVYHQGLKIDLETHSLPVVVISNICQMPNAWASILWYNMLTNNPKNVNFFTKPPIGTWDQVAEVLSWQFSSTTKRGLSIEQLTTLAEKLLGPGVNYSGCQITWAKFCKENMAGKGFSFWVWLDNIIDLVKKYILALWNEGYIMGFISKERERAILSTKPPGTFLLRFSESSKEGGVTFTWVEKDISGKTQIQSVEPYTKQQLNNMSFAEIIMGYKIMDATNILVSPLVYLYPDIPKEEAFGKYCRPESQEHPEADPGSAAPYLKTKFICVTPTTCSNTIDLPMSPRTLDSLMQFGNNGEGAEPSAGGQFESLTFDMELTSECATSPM

Target: STAT3 (Homo sapiens, UniProt P40763)
Test: SPR (purified STAT3 immobilized on CM5 chip); supported by CETSA in A549 cells
Details: tested form: CF3COOH salt

Question: `Brc1cc(-c2nccc3c2ncn3CCCCCCN2CCCCC2)[nH]c1Br` was tested. Which Kd did it give?
Answer: Its Kd is 9.01 µM.
